{
  "source": "patent US4415566A",
  "about": "“Cephalosporin derivatives” (Boehringer Ingelheim GmbH, priority 1979, dated 1983)",
  "tested_on": "Proteus rettgeri",
  "assay": "Serial dilution test in the microtiter system (MIC), Prot. rettgeri",
  "conditions": "Providencia rettgeri",
  "data": [
    {"compound": "Cc1nnc(SCC2=C(C(=O)O)N3C(=O)[C@@H](NC(=O)Cn4cnnn4)[C@H]3SC2)s1", "note": "[Cephazolin, reference compound]", "values": [
      {"measurement": "MIC", "result": "> 128", "unit": "µg/mL"}
    ]}
  ]
}
